# In PubChem BioAssay (Tox21):
# Sequences of proteins named here, by UniProt entry; tags and fusion partners are left off.
# UniProt P14416, whole entry, looked up: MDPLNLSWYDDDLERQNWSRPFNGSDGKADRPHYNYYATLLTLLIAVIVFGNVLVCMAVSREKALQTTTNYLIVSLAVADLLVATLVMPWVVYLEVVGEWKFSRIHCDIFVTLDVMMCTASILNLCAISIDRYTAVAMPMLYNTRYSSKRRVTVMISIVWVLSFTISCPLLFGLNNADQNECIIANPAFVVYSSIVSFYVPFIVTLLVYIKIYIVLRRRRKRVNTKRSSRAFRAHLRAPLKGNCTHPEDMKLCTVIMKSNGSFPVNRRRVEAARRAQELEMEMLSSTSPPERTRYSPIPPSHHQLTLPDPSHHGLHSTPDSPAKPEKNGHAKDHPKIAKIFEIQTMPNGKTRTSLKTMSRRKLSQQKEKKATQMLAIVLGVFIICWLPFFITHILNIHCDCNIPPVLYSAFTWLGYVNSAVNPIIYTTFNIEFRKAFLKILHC
# “And” between values parts separate entries of the source, which are not always exact repeats. Equal values may be shown once. The list shows a part of the results, in another mix than the full data. Records with an inconclusive call do not appear. The source holds several records for some structures; these can differ, active in one and inactive in another. The source made the active and inactive calls. Calls follow the shape of the dose curve; as a rule, active = well fitted inhibition curve with a large enough effect in the signal ratio in the repeat runs, with a control signal flat; inconclusive = weak or mixed curves, or effect the other way; inactive = flat fitted curve, though single readings scatter; the % refers to the signal ratio.
# Molecular target: D(2) dopamine receptor (Homo sapiens) (UniProt P14416)
# Assay: Dopamine D2 receptor (DRD2) small molecule antagonists, cell-based qHTS assay (AID 1963595)
# Conditions: HEK293-DRD2 cAMP HTRF antagonist mode; at 92.4 µM (top of the series) unless noted
# Excerpt: National Center for Advancing Translational Sciences [NCATS]
# Division of Preclinical Innovation [DPI]
# U.S. Environmental Protection Agency [EPA]
# National Institutes of Environmental Health Sciences [NIEHS]
# National Toxicology Program [NTP]
# U.S. Food and Drug Administration [FDA]
# DRD2 is the D2 subtype of the dopamine receptor, which is coupled to Gi subtype of G protein-coupled receptor. This G protein-coupled receptor inhibits adenylyl cyclase activity. The DRD2-HEK293 cell line stably expressing D2 dopamine receptor can be used for screening agonists and antagonists of interactions between D2 and its ligands. The Hek293-DRD2 cAMP assay is based on HTRF technology. It measures changes of cAMP accumulation in response to Gi coupled GPCR activation or inhibition.
# Tox21 Assay Protocol Summary:
# DRD2-Hek293 cells were dispensed at 600 cells/3uL/well in 1536-well white plates using a Multidrop Dispenser. After the assay plates were incubated at a 37 C/5% CO2 incubator for 24 h, 1 uL of Ro20-1724 at final concentration of 0.1 mM was transferred to the assay plate by a Flying Reagent Dispenser. Following Ro20-1724 addition, 23 nL of compound dissolved in DMSO, positive controls or DMSO only was added to the assay plates via Wako pintool station. The assay plates were incubated at room temperature for 10 min. Next, 1 uL of mixture of NKH477 (final concentration at 200 nM) and quinpirole (final concentration at 12 nM) was added into the plates. After the assay plates were incubated at room temperature for an additional 30 min, 2.5 ul/well of cAMP-d2 and 2.5 ul/well of anti-cAMP-cryptate were added respectively into the assay plates using a Flying Reagent Dispenser. The plates were incubated at room temperature for 1 h. The fluorescence intensity in the plates was measured at 340 nm excitation and 665 & 620 nm emission by an Envision plate reader.
# % is scaled to controls: 0 for no effect and ±100 for the full control effect.
row,Compound,"activity change, negative = inhibition"
1,O=[N+]([O-])c1ccc(S(=O)(=O)O)c([N+](=O)[O-])c1,inactive: 4.83%
2,CN(C(=O)Cc1ccccc1)[C@H]1CC[C@@]2(CCCO2)C[C@@H]1N1CCCC1,inactive: 3.34% [at 42.5 µM]
3,NC(=O)Nc1ccc([As](=O)(O)O)cc1,inactive: 0.758% [at 42.5 µM]
4,ClP(Cl)c1ccccc1,inactive: 1.41%
5,CCOP(=S)(CC)Sc1ccccc1 (stereo not drawn),inactive: 1.79%
6,O=C(Cl)Oc1ccccc1,inactive: 2.89%
7,O=P(Cl)(Oc1ccccc1)Oc1ccccc1,inactive: -0.429%
8,O=[N+]([O-])c1ccc([N+](=O)[O-])cc1,inactive: -12.4%
9,CCCCC(CC)CO[P+](=O)OCC(CC)CCCC (stereo not drawn),inactive: -3.98%
10,CN(N=O)C(=N)N[N+](=O)[O-],inactive: -0.221%
11,CCNC(C)Cc1ccc2c(c1)OCO2 (stereo not drawn),inactive: -1.5%
12,Cc1cc([N+](=O)[O-])c(O)c([N+](=O)[O-])c1,inactive: -2.3%
13,CC(C)OP(=S)(OC(C)C)SCCNS(=O)(=O)c1ccccc1,inactive: 0.0702%
14,Cc1cc([N+](=O)[O-])cc([N+](=O)[O-])c1O,inactive: -2.4%
15,COC(=O)Cl,inactive: -1.3%
16,CC(C)CCCCCCCOP(OCCCCCCCC(C)C)Oc1ccccc1,inactive: -16.3%
17,CCOC(=O)Cl,inactive: 3.03%
18,CN(C(=O)Cc1cccc2occc12)[C@H]1CC[C@@]2(CCCO2)C[C@@H]1N1CCCC1,inactive: 22%
19,CCCCOP(OCCCC)OCCCC,inactive: -2.34%
20,CCCCCCCCCCCCCC[P+](CCCCCC)(CCCCCC)CCCCCC,inactive: -3.58%
21,O=C(Cl)OCCOC(=O)Cl,inactive: 8.1%
22,O=[p+]1oc2ccccc2c2ccccc21 (stereo not drawn),inactive: -9.78%
23,CCC(C)(OOC(C)(C)C)OOC(C)(C)C,inactive: 3.05% [at 18.9 µM]
24,CCCCO[P+](=O)OCCCC,inactive: 1.93% and inactive: -3.02%
25,CN(C(=O)Cc1ccc(Cl)c(Cl)c1)[C@H]1CC[C@@]2(CCCO2)C[C@@H]1N1CCCC1,inactive: 10.5% [at 42.5 µM]
26,COP(=S)(Cl)OC,inactive: 0.103%
27,O=P(Cl)(Cl)c1ccccc1,inactive: 14.8%
28,O=[P+](Oc1ccccc1)Oc1ccccc1,inactive: -9.9%
